Structures are written as SMILES.

A short description of the test: Tested for maximum agonist response at concentration 10 uM, relative to that obtained with standard agonist U50,488.

For `CN(C(=O)Cc1ccc(Cl)c(Cl)c1)C1CCCCC1N1CCCC1` (stereo unspecified), the Max agonist response turned out to be 100%.

For the origin of these results see ChEMBL document CHEMBL1133465, “[Pro(3)]Dyn A(1-11)-NH(2): a dynorphin analogue with high selectivity for the kappa opioid receptor” (J Med Chem, 2000).
